Assay results taken from patent US20240226306A1, “TREM-2/DAP-12 INHIBITORS FOR TREATING LUNG DISEASE AND INJURY AND COMBINATIONS THEREOF” (published 2024).

Legend:
[1] = Solubility of peptides in water and formulation vehicles
TREM-1 = conditions: pigs and primates; Derive et al. 2013, 2014; cited from earlier work

| Compound | solubility in SBECD-based formulations (aqueous solution of Dexolve) [1] | solubility in an aqueous solution of propylene glycol, ethanol and Tween-80 [1] | solubility in water [1] | endotoxin-associated clinical and biological alterations (TREM-1) | side effects (TREM-1) |
| --- | --- | --- | --- | --- | --- |
| CC[C@H](C)[C@H](N)C(=O)N[C@@H](Cc1ccccc1)C(=O)N[C@@H](CC(C)C)C(=O)N[C@H](C(=O)N[C@@H](CCCCN)C(=O)N[C@H](C(=O)N[C@@H](CC(C)C)C(=O)N[C@@H](C)C(=O)N[C@@H](C)C(=O)O)[C@@H](C)CC)[C@@H](C)CC | not soluble | dissolved | water-insoluble | – | – |
| LQEEDAGEYGCM | – | – | – | mitigates endotoxin-associated clinical and biological alterations | no obvious side effects |
| CC(C)C[C@H](NC(=O)[C@H](Cc1ccccc1)NC(=O)CN)C(=O)N[C@@H](CO)C(=O)N[C@@H](CCCCN)C(=O)N[C@@H](CO)C(=O)N[C@@H](CC(C)C)C(=O)N[C@H](C(=O)N[C@@H](Cc1ccccc1)C(=O)O)C(C)C | dissolved | dissolved | water-insoluble | – | – |
| CC[C@H](C)[C@H](NC(=O)[C@H](CCCCN)NC(=O)[C@@H](NC(=O)[C@H](CC(C)C)NC(=O)[C@H](Cc1ccccc1)NC(=O)[C@@H](NC(=O)[C@H](Cc1ccccc1)NC(=O)[C@@H](NC(=O)[C@H](CC(C)C)NC(=O)[C@H](CO)NC(=O)[C@H](CCCCN)NC(=O)[C@H](CO)NC(=O)[C@H](CC(C)C)NC(=O)[C@H](Cc1ccccc1)NC(=O)CN)C(C)C)[C@@H](C)CC)[C@@H](C)CC)C(=O)N[C@@H](CC(C)C)C(=O)N[C@@H](C)C(=O)N[C@@H](C)C(=O)O | dissolved | – | water-insoluble | – | – |
